Data as given in patent US20090215805A1, “4-Heteroaryl Pyrimidine Derivatives and use thereof as Protein Kinase Inhibitors” (Cyclacel Limited, priority 2005, published 2009).

Sequences of proteins named here, by UniProt entry; tags and fusion partners are left off. Residues count along the entry.
UniProt Q9VGF9, 1-411: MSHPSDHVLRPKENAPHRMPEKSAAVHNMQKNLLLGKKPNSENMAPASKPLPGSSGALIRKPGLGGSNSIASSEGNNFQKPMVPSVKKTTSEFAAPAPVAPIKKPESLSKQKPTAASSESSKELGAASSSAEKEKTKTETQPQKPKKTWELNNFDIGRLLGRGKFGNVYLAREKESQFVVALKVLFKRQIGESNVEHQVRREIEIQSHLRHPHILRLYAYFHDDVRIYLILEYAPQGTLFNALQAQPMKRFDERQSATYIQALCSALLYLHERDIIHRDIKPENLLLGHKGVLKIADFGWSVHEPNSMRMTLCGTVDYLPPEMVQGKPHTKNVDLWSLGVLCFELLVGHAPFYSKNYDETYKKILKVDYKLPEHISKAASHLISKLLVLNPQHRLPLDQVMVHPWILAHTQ

Molecular target: DM Aur A (Dm AK-A) (Drosophila melanogaster, UniProt Q9VGF9)
Test: Dm aurora A kinase assay (DM Aur A / Dm AK-A)
Assay type: biochemical
Conditions: for IC50: read-out: DM Aur A IC50, values without asterisk (DM aurora A); for Ki: read-out: Ki Dm AK-A, in vitro kinase assay
Procedure: The compounds of the invention above were investigated for their ability to inhibit the enzymatic activity of various protein kinases. This was achieved by measurement of incorporation of radioactive phosphate from ATP into appropriate polypeptide substrates. Recombinant protein kinases and kinase complexes were produced or obtained commercially. Assays were performed using 96-well plates and appropriate assay buffers (typically 25 mM β-glycerophosphate, 20 mM MOPS, 5 mM EGTA, 1 mM DTT, 1 mM […], pH 7.4), into which were added 2-4 μg of active enzyme with appropriate substrates. The reactions were initiated by addition of Mg/ATP mix (15 mM MgCl2+100 μM ATP with 30-50 kBq per well of [γ-^32P]-ATP) and mixtures incubated as required at 30° C. Reactions were stopped on ice, followed by filtration through p81 filterplates or GF/C filterplates (Whatman Polyfiltronics, Kent, UK). After washing 3 times with 75 mM aq orthophosphoric acid, plates were dried, scintillant added and incorporated radioactivity measured in a scintillation counter (TopCount, Packard Instruments, Pangbourne, Berks, UK). Compounds for kinase assay were made up as 10 mM stocks in DMSO and diluted into 10% DMSO in assay buffer. Data was analysed using curve-fitting software (GraphPad Prism version 3.00 for Windows, GraphPad Software, San Diego Calif. USA) to determine IC50 values (concentration of test compound which inhibits kinase activity by 50%).

Structure (SMILES)	IC50 [µM]	Ki [µM]
CCOC(=O)c1[nH]c(C)c(-c2ccnc(Nc3ccc(O)cc3)n2)c1-c1ccccc1	1.21	0.472
COCCOC(=O)c1[nH]c(C)c(-c2ccnc(Nc3ccc(N(C)C)cc3)n2)c1-c1ccccc1	0.777	0.303
CCOC(=O)c1[nH]c(C)c(-c2ccnc(Nc3ccc(I)cc3)n2)c1-c1ccccc1	≥ 10	> 10
Cc1[nH]cc(-c2ccccc2)c1-c1ccnc(Nc2ccc(N3CCOCC3)cc2)n1	1.87	0.73
